What all share (type): biochemical
In one test the target is EZH2 (Y641N) (Homo sapiens (Human), UniProt Q15910, Y641N). The test is described as follows: Test on EZH2 (Y641N) inhibitory activity.
A further test addresses EZH2 (Y641F) (Homo sapiens (Human), UniProt Q15910, Y641F). In words: Test on EZH2 (Y641F) inhibitory activity.
The target in a further test is EZH2 (wt) (Homo sapiens (Human), UniProt Q15910). The test is described as follows: Test on EZH2 (wt) inhibitory activity ([3H]-SAM Flashplate).

Sequences of proteins named here, by UniProt entry; tags and fusion partners are left off.
UniProt Q15910, whole entry Y641N: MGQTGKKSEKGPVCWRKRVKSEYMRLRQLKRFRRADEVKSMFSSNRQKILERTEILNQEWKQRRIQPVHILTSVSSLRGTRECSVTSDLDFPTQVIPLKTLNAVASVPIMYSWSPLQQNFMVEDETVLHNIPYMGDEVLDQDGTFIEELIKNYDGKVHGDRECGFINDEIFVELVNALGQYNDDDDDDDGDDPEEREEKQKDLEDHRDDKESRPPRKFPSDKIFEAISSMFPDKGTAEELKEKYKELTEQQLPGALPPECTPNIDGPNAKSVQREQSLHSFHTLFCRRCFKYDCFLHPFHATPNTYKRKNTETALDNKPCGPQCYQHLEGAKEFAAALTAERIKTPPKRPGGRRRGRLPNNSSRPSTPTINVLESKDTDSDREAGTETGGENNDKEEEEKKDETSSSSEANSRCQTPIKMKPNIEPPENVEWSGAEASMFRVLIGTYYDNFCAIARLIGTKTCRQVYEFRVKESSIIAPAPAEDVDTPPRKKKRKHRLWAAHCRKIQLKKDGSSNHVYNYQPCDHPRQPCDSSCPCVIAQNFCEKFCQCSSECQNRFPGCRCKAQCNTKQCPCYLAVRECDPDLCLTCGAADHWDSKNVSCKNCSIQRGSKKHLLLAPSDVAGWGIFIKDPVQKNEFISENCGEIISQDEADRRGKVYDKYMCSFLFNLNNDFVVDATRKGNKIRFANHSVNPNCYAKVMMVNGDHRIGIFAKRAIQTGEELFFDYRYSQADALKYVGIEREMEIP
UniProt Q15910, whole entry Y641F: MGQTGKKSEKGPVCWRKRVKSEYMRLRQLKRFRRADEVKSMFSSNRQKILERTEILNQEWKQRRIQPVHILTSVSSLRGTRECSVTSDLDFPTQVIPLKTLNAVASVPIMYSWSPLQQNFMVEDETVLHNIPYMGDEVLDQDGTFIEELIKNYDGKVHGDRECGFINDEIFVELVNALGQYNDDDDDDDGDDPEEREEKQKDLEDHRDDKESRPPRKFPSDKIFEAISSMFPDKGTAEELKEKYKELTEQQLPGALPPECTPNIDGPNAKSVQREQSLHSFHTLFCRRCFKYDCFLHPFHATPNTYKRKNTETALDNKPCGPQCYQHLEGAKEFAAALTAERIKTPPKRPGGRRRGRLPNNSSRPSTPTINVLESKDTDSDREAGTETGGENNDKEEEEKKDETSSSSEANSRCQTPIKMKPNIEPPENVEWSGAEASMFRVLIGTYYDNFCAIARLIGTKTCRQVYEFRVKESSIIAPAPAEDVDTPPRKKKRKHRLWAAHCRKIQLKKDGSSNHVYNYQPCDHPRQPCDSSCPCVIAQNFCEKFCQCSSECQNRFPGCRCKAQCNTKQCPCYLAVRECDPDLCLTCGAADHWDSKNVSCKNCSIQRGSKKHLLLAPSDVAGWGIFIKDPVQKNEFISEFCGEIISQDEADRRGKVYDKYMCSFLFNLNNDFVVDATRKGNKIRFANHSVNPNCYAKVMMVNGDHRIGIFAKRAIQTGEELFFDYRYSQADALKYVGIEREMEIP
UniProt Q15910, whole entry: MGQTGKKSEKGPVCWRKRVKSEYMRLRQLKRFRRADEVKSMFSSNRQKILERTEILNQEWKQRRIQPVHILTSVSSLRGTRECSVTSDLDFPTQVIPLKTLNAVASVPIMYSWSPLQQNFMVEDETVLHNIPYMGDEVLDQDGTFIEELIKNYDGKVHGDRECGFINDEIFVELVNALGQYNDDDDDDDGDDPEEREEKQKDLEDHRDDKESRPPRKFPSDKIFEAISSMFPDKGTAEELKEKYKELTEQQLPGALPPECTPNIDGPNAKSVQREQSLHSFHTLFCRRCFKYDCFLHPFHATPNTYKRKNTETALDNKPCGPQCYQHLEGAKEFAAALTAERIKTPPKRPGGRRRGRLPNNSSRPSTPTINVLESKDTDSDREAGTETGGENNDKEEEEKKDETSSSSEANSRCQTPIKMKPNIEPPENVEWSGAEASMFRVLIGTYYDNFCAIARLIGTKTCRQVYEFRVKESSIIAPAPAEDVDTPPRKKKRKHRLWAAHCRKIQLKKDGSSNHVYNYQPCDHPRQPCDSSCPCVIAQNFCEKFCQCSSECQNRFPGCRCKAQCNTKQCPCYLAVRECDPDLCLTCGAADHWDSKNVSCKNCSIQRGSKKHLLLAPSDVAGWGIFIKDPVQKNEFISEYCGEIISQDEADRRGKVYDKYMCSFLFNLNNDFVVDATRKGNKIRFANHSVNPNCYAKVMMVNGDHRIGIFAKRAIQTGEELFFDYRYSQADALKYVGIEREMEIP

For two molecules, IC50 results are on record in US12390472B2 (SUZHOU SINOVENT PHARMACEUTICALS CO., LTD., priority 2018, dated 2025).

Structures are written as SMILES.

Regarding `CCN(c1cc(O[C@H]2C[C@H](N3CCCCC3)C2)cc(C(=O)NCc2c(C)cc(C)[nH]c2=O)c1C)C1CCC(F)(F)CC1` [Example 68, 3-((4,4-difluorocyclohexyl)(ethyl)amino)-N-((4,6-dimethyl-2-oxo-1,2-dihydropyridin-3-yl)methyl)-2-methyl-5-(trans-3-(piperidin-1-yl)cyclobutoxy)benzamide], the values for the half-maximal inhibitory concentration (IC50) against EZH2 (Y641N), against EZH2 (Y641F) and against EZH2 (wt) were 1 nM, 1.1 nM and 0.6 nM, respectively.

As to `CCN(c1cc(O[C@H]2C[C@H](N3CCCCC3)C2)cc(C(=O)NCc2c(OC)cc(C)[nH]c2=O)c1C)C1CCC(F)(F)CC1` [Example 91, 3-((4,4-difluorocyclohexyl)(ethyl)amino)-N-((4-methoxy-6-methyl-2-oxo-1,2-dihydropyridin-3-yl)methyl)-2-methyl-5-(trans-3-(piperidin-1-yl)cyclobutoxy)benzamide], the IC50 against EZH2 (Y641N) came to 0.6 nM; against EZH2 (Y641F), 0.7 nM; against EZH2 (wt), 0.7 nM.
